In patent US5084454A, “2-(piperidinylmethyl)-4-phenyl-2,3-dihydro-4H-1,4-benzoxazines useful as antipsychotics” (Farmitalia Carlo Erba S.r.l., priority 1988, dated 1992):

System: mice
Assay: orientative acute toxicity (LD50), oral, mice
Conditions: oral single administration, assessed on seventh day, 10080 min

| Compound | LD50 |
| --- | --- |
| O=C1NCN(c2ccccc2)C12CCN(CC1CN(c3ccccc3)c3ccccc3O1)CC2 (stereo not drawn) | > 800 mg/kg/os |
| O=C1NCN(c2ccccc2)C12CCN(CC1CN(c3ccccc3)c3ccccc3O1)CC2 (single isomer, unassigned) | > 800 mg/kg/os |
| O=C1NCN(c2ccccc2)C12CCN(CC1CN(c3ccc(F)cc3)c3ccccc3O1)CC2 (stereo not drawn) [FCE 25676, 2-(1-phenyl-1,3,8-triazaspiro[4,5]decan-4-one-8-yl)-methyl-4-(4-fluorophenyl)-2,3-dihydro-4H-1,4-benzoxazine] | > 800 mg/kg/os |
